Measured values from ChEMBL document CHEMBL2321770.

By UniProt entry, the sequences of proteins in these tests, tags left out. Where a name states a change or a piece, a line headed by the entry shows the natural chain unless it says otherwise.
UniProt P42336, whole entry: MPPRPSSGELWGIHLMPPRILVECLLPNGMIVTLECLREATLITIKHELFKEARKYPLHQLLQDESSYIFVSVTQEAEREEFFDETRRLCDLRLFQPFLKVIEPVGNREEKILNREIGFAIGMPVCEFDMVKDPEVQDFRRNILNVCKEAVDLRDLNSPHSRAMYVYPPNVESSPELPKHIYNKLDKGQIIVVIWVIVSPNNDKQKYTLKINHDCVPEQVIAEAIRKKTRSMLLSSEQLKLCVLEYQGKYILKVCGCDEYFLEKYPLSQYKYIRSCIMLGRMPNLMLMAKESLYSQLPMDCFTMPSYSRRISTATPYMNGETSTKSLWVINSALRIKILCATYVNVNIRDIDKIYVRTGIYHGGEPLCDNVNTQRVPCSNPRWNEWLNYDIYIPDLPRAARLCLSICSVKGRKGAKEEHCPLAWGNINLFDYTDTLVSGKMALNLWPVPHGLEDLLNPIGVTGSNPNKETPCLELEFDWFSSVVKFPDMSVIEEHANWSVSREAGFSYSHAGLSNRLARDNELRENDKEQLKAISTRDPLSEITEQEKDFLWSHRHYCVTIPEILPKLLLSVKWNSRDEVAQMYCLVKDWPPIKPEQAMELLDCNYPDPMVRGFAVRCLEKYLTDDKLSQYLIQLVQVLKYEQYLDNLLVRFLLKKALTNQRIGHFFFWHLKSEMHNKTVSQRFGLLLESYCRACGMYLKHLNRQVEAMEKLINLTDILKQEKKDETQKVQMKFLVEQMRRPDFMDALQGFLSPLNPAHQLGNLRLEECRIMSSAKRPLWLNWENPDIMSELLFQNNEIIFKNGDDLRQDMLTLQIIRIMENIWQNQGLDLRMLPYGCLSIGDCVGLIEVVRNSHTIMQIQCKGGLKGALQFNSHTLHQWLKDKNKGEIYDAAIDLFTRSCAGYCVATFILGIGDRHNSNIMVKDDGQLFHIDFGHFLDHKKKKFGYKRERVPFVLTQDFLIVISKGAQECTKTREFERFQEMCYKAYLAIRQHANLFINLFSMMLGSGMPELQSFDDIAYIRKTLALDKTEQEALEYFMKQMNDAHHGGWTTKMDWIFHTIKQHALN
UniProt P42338: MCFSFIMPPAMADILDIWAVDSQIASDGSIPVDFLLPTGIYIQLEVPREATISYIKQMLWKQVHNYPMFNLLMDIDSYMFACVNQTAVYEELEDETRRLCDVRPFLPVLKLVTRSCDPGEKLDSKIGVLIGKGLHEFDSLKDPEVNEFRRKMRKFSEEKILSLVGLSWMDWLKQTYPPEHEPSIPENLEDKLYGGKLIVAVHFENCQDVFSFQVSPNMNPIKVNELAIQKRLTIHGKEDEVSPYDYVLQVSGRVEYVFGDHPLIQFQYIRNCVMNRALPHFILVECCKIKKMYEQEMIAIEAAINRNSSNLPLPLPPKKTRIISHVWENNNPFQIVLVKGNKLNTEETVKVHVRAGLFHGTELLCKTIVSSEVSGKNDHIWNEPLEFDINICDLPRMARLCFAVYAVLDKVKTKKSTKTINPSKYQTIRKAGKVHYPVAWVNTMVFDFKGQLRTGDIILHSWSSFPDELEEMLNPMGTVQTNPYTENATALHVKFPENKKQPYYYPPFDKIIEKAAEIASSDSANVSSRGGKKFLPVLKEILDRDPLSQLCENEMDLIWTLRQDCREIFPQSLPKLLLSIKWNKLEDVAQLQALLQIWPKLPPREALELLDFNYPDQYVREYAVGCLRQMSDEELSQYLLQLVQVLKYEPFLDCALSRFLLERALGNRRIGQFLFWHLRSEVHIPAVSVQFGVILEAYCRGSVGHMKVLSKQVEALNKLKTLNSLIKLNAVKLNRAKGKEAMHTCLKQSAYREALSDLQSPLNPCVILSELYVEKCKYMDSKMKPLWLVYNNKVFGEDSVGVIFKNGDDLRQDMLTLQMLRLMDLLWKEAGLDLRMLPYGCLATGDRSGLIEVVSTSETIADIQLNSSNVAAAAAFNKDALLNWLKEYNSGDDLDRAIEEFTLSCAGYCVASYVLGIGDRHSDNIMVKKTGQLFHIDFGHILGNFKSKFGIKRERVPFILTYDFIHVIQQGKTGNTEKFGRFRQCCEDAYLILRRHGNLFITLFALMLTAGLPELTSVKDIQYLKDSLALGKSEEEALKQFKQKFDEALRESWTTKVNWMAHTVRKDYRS
UniProt P48736: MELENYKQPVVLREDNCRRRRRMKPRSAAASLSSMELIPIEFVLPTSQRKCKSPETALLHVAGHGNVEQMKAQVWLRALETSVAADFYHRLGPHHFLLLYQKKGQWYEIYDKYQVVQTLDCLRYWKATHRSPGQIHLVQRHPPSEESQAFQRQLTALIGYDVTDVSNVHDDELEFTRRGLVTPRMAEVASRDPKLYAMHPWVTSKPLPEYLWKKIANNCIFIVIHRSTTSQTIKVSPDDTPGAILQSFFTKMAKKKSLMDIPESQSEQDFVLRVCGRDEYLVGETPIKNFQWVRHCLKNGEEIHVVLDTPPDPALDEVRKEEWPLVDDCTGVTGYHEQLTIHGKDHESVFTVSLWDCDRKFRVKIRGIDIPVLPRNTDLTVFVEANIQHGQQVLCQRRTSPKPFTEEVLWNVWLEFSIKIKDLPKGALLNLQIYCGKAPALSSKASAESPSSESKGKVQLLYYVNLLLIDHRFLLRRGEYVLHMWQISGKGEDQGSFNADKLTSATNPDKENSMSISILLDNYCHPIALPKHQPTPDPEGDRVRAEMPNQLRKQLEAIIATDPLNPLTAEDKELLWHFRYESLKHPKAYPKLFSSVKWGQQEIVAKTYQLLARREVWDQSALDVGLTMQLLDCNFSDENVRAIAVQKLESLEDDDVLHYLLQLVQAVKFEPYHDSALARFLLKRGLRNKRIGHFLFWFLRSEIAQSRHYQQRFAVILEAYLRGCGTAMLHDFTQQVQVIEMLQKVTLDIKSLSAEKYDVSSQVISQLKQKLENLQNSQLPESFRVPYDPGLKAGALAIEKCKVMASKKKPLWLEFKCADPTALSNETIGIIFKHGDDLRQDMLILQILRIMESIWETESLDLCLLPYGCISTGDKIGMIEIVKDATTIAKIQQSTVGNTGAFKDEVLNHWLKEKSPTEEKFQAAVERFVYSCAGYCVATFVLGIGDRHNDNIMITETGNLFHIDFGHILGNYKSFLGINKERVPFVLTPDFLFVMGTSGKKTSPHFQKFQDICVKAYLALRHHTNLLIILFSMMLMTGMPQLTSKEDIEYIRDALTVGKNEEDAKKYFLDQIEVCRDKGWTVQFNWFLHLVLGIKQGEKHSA

What was measured:
[1] = molecular target: Phosphatidylinositol 4,5-bisphosphate 3-kinase catalytic subunit alpha isoform (Homo sapiens, UniProt P42336); assay: Binding affinity to PI3Kalpha (unknown origin)
[2] = molecular target: Phosphatidylinositol 4,5-bisphosphate 3-kinase catalytic subunit beta isoform (Homo sapiens, UniProt P42338); assay: Binding affinity to PI3Kbeta (unknown origin)
[3] = molecular target: T1, Phosphatidylinositol 4,5-bisphosphate 3-kinase catalytic subunit delta isoform (Homo sapiens) (UniProt O00329); assay: Binding affinity to PI3Kdelta (unknown origin)
T1 sequence (whole entry): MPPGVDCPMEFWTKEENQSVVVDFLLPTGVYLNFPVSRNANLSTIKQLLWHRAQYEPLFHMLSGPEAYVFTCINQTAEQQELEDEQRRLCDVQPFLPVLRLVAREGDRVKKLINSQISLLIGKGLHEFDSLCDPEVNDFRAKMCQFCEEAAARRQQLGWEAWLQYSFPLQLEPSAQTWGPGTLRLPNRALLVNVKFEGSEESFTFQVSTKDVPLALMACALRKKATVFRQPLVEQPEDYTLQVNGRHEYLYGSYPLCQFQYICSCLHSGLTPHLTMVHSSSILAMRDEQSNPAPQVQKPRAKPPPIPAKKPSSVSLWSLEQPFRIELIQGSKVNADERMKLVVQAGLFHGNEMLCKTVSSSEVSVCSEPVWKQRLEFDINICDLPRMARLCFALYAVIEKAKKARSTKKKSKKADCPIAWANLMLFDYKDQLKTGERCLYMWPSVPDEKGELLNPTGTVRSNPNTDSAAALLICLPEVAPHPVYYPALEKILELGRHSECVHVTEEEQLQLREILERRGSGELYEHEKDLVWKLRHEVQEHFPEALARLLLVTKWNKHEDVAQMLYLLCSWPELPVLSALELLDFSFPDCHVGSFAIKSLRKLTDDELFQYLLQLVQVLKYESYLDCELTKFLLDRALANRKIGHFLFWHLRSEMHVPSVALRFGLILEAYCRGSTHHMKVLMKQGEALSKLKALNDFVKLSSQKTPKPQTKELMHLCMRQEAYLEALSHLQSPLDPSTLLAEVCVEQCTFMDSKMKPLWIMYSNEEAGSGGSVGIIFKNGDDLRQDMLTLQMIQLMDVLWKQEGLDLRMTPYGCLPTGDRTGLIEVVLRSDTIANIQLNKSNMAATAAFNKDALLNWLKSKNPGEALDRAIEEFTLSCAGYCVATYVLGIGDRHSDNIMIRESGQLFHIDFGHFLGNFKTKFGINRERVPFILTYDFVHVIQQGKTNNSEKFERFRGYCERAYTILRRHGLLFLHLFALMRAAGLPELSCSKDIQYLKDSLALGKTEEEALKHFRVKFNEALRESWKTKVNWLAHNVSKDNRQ

[4] = molecular target: Phosphatidylinositol 4,5-bisphosphate 3-kinase catalytic subunit gamma isoform (Homo sapiens, UniProt P48736); assay: Binding affinity to PI3Kgamma (unknown origin)
Homo sapiens [5] = species: Homo sapiens; assay: Inhibition of PI3K (unknown origin)
Homo sapiens [6] = species: Homo sapiens; assay: Inhibition of DNA-PK (unknown origin)

Row | SMILES | Activity [1] | Activity [2] | Activity [3] | Activity [4] | inhibition (Homo sapiens [5]) | inhibition (Homo sapiens [6])
1 | O=c1cc(N2CCOCC2)oc2c(-c3ccc(N4CCOCC4)cc3)csc12 | inactive | inactive | inactive | inactive |  | 
2 | Cn1c(=O)n(-c2ccc(C(C)(C)C#N)cc2)c2c3cc(-c4cnc5ccccc5c4)ccc3ncc21 |  |  |  |  | Active | Active
3 | O=c1cc(N2CCOCC2)oc2c(N3CCCCC3)csc12 | inactive | inactive | inactive | inactive |  | 

Active and inactive are the calls of the source. The rule behind the calls is not given here.
